{
  "sequences": {"note": "The chains behind the UniProt entries cited, without tags or fusion partners. Where a name states a change or a piece, a line headed by the entry shows the natural chain unless it says otherwise.", "UniProt P41145": "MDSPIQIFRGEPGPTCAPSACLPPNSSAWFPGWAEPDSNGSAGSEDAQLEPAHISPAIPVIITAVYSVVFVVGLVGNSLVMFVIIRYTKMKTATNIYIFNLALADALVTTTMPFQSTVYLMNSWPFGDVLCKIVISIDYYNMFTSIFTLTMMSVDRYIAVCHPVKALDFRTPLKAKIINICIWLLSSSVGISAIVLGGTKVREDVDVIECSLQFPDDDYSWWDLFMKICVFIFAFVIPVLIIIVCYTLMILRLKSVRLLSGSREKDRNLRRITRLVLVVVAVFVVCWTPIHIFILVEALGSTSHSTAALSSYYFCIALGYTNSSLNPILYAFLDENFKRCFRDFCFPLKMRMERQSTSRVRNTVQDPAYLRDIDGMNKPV"},
  "source": "PubChem BioAssay AID1778",
  "about": "(Sanford-Burnham Center for Chemical Genomics, 2009)",
  "note": "This is one part of the list. Entries with a potency or affinity are not part of this list. The source made the active and inactive calls. Cut-off read from the data, not from the text of the source: active = inhibition above about 50%; inactive = the rest.",
  "data": [
    {"target": "Kappa-type opioid receptor (Homo sapiens) (UniProt P41145)", "assay": "KOR antagonists, beta-arrestin recruitment, cell-based, luminescence, uHTS (AID 1778)", "details": "antagonist mode, at 10 µM, stronger effect = higher value", "values": [
      {"smiles": "CC(/C=N/NC(=O)Cn1cnc2c1c(=O)n(C)c(=O)n2C)=C\\c1ccccc1", "inhibition": "inactive: 7.4%"},
      {"smiles": "CC(C)c1ccccc1NC(=O)Cn1c(-c2ccccc2Cl)nc2ccccc21", "inhibition": "inactive: -0.6%"},
      {"smiles": "c1ccc(CNc2nc3ccccc3n2CCN2CCOCC2)nc1", "inhibition": "inactive: -50.8%"},
      {"smiles": "O=P(Nc1nccs1)(c1ccccc1)c1ccccc1", "inhibition": "inactive: 11.9%"},
      {"smiles": "Cn1c(=O)n(CC(=O)N2CCOCC2)c2ccccc21", "inhibition": "inactive: 6%"},
      {"smiles": "CC(C)C(=O)NC(Sc1ccccc1)C(Cl)(Cl)Cl", "note": "(configuration not stated)", "inhibition": "inactive: -13.7%"},
      {"smiles": "CCc1ccc(NC(=O)Cn2cnc3c(=O)n(C)c(=O)n(C)c32)cc1", "inhibition": "inactive: 0.7%"},
      {"smiles": "CCS(=O)(=O)c1nc2ccccc2n1CC(=O)N1CCCCC1", "inhibition": "inactive: 10.8%"},
      {"smiles": "CC1CCCC(C)N1C(=O)Cn1c(SCC(=O)Nc2ccc3c(c2)OCO3)nc2ccccc21", "note": "(configuration not stated)", "inhibition": "inactive: 1.7%"},
      {"smiles": "c1ccc2c(c1)nc1n2CCN1CCN1CCCC1", "inhibition": "inactive: -24.5%"},
      {"smiles": "Cn1c(=O)c2c(ncn2CC(=O)N2CCN(S(=O)(=O)c3ccccc3)CC2)n(C)c1=O", "inhibition": "inactive: -11.3%"},
      {"smiles": "O=C(c1cccs1)N1CCn2c1nc1ccccc12", "inhibition": "inactive: -3.3%"},
      {"smiles": "CC(C)C[C@H](NC(=O)N1CCn2c1nc1ccccc12)C(=O)NC1CC1", "inhibition": "inactive: -29.4%"},
      {"smiles": "CCN(CC)CCn1c(=N)n(CC(O)COc2cccc(C)c2)c2ccccc21", "note": "(configuration not stated)", "inhibition": "inactive: -8.2%"},
      {"smiles": "COc1ccc(OCC(O)Cn2c(=N)n(CCN3CCCCC3)c3ccccc32)cc1", "note": "(configuration not stated)", "inhibition": "inactive: 15.6%"},
      {"smiles": "N#CCCN1CCn2c1nc1ccccc12", "inhibition": "inactive: -27.5%"},
      {"smiles": "Cn1c(=O)c2ncn(CC(=O)N/N=C/c3ccco3)c2n(C)c1=O", "inhibition": "inactive: -15.4%"},
      {"smiles": "CSc1nc2ccccc2n1CC(=O)Nc1cc(C(F)(F)F)ccc1N1CCOCC1", "inhibition": "inactive: 16.1%"},
      {"smiles": "CCOc1ccc(CCNC(=O)Cn2c(-c3nonc3N)nc3ccccc32)cc1OCC", "inhibition": "inactive: 15.3%"},
      {"smiles": "CCN(CC)CCn1c(NCc2nc3ccccc3n2Cc2ccccc2)nc2ccccc21", "inhibition": "inactive: -12.1%"},
      {"smiles": "O=C(CCCCCNC(=O)N1CCn2c1nc1ccccc12)NCc1ccccc1", "inhibition": "inactive: -44.6%"},
      {"smiles": "CCNC(=O)Cn1cnc2c1c(=O)n(C)c(=O)n2C", "inhibition": "inactive: 16.9%"},
      {"smiles": "CCN(CC)C(=O)CSc1nc2ccccc2n1CC(=O)N1CCN(c2ccccc2OC)CC1", "inhibition": "inactive: 10%"},
      {"smiles": "c1nnnn1CCn1cnnn1", "inhibition": "inactive: 0.1%"},
      {"smiles": "CCC(=O)Nc1cccc(C(=O)/C=C/c2ccccc2)c1", "inhibition": "inactive: 18.9%"},
      {"smiles": "O=C(Cn1cnc2ccccc21)N/N=C/c1ccccc1", "inhibition": "inactive: -4.8%"},
      {"smiles": "CCOC(=O)Cn1c(=O)oc2cc(S(=O)(=O)N3CCn4c3nc3ccccc34)ccc21", "inhibition": "inactive: -2.6%"},
      {"smiles": "O=C(Cn1c(CO)nc2ccccc21)Nc1cc(C(F)(F)F)ccc1N1CCOCC1", "inhibition": "inactive: 5.2%"},
      {"smiles": "Cc1ccc(NC(=O)Cn2c(/C=C/c3ccccc3)nc3ccccc32)cc1C", "inhibition": "inactive: -24.6%"},
      {"smiles": "O=S(=O)(c1ccc(Cl)cc1)N1CCn2c1nc1ccccc12", "inhibition": "inactive: -0.6%"},
      {"smiles": "CSCC[C@H](NC(=O)N1CCn2c1nc1ccccc12)C(=O)NCc1ccc2c(c1)OCO2", "inhibition": "inactive: -2.1%"},
      {"smiles": "CC(/C=N/NC(=O)Cn1cnc2ccccc21)=C\\c1ccccc1", "inhibition": "inactive: 16.7%"},
      {"smiles": "COc1ccc(Cc2nnc(NC(=O)Cn3cnc4c3c(=O)n(C)c(=O)n4C)s2)cc1OC", "inhibition": "inactive: -6.4%"},
      {"smiles": "CCCn1c(=O)c2c(nc3n2CCN3Cc2ccco2)n(C)c1=O", "inhibition": "inactive: 13%"},
      {"smiles": "CCN(CC)c1ccc(NC(=O)Cn2c(C(C)NC(=O)c3ccc(C)cc3)nc3ccccc32)cc1", "note": "(configuration not stated)", "inhibition": "inactive: 2.8%"},
      {"smiles": "COc1cc(/C=N/NC(=O)Cn2cnc3c2c(=O)n(C)c(=O)n3C)cc(OC)c1OC", "inhibition": "inactive: 12.6%"},
      {"smiles": "CSCC[C@H](NC(=O)N1CCn2c1nc1ccccc12)C(=O)NC1CC1", "inhibition": "inactive: -34.3%"},
      {"smiles": "O=C(NC1CCCCC1)C(c1ccccc1)N(Cc1ccco1)C(=O)Cn1cnc2ccccc21", "note": "(configuration not stated)", "inhibition": "inactive: -67.4%"},
      {"smiles": "CCOc1ccc(CNc2nc3ccccc3n2CCN2CCOCC2)cc1", "inhibition": "inactive: -28.6%"},
      {"smiles": "CCOc1ccc(NC(=S)N2CCn3c(nc4ccccc43)C2)cc1", "inhibition": "inactive: -15%"},
      {"smiles": "CCN(CC)CCn1c(=N)n(CC(=O)c2ccc(Br)s2)c2ccccc21", "inhibition": "inactive: -8.9%"},
      {"smiles": "O=S(=O)(c1ccccc1)c1nnn2c1nc(NC1CCN(Cc3ccccc3)CC1)c1cc(Cl)ccc12", "inhibition": "inactive: -20.2%"},
      {"smiles": "CCC(C)N(C(=O)Cn1c(Cl)nc2c1c(=O)n(C)c(=O)n2C)C1CCS(=O)(=O)C1", "note": "(configuration not stated)", "inhibition": "inactive: -6%"},
      {"smiles": "Brc1cccc(CNc2nc3ccccc3n2CCN2CCCCC2)c1", "inhibition": "inactive: 11%"},
      {"smiles": "COc1ccc(OC)c(CNc2nc3ccccc3n2CCN2CCCCC2)c1", "inhibition": "inactive: 13.9%"},
      {"smiles": "CCSc1nc2ccccc2n1CC(N)=O", "inhibition": "inactive: 12.9%"},
      {"smiles": "Cn1c(=O)c2c(nc(CN3CCN(Cc4ccccc4)CC3)n2CCN2CCOCC2)n(C)c1=O", "inhibition": "inactive: -44.9%"},
      {"smiles": "CC(NC(=O)Cn1c(NCCO)nc2ccccc21)c1ccccc1", "note": "(configuration not stated)", "inhibition": "inactive: 44.2%"},
      {"smiles": "Cn1c(=O)[nH]c(=O)c2c1nc(N1CCCCCC1)n2CC(N)=O", "inhibition": "inactive: 0.7%"},
      {"smiles": "Nc1nonc1-c1nc2ccccc2n1CC(=O)N/N=C/c1ccc(-c2ccccc2C(=O)O)o1", "inhibition": "inactive: -43.3%"},
      {"smiles": "COc1ccc(-c2nn(-c3ccccc3)cc2C(=O)N2c3ccc(C)cc3C3CN(C)CCC32)cc1", "note": "(configuration not stated)", "inhibition": "inactive: -28.9%"},
      {"smiles": "Cn1c(=O)c2c(nc(CN3CCN(C(c4ccccc4)c4ccccc4)CC3)n2CC(N)=O)n(C)c1=O", "inhibition": "inactive: -20%"},
      {"smiles": "CCOC(=O)c1cccc(NC(=O)Cn2cnc3c2c(=O)n(C)c(=O)n3C)c1", "inhibition": "inactive: 23.7%"},
      {"smiles": "CC(=O)NC(C)c1nc2ccccc2n1CC(=O)NC(C)CCc1ccccc1", "note": "(configuration not stated)", "inhibition": "inactive: 12.5%"},
      {"smiles": "CCc1cccc(C)c1NC(=O)CSc1nc2ccccc2n1CC(=O)N(C)C", "inhibition": "inactive: -24.8%"},
      {"smiles": "CCN1C(=O)CC(n2c(C)nc3ccccc32)C1=O", "note": "(configuration not stated)", "inhibition": "inactive: 4.3%"},
      {"smiles": "COc1ccc(N2CCn3c2nc2c3c(=O)n(CCc3ccccc3)c(=O)n2C)c(OC)c1", "inhibition": "inactive: 10.6%"},
      {"smiles": "O=C(Cn1cnc2ccccc21)N/N=C/c1ccco1", "inhibition": "inactive: -14%"},
      {"smiles": "COc1ccc(CNc2nc3ccccc3n2CCN2CCCCC2)cc1", "inhibition": "inactive: -4.1%"},
      {"smiles": "COCCN1CCn2c(nc3cc(NS(C)(=O)=O)ccc32)C1", "inhibition": "inactive: 8.1%"},
      {"smiles": "Cc1cccc(OCC(O)Cn2c(=N)n(CCN3CCCCC3)c3ccccc32)c1", "note": "(configuration not stated)", "inhibition": "inactive: -16.7%"},
      {"smiles": "O=P1(Nc2nc3ccc(Cl)cc3s2)COc2ccccc2O1", "note": "(configuration not stated)", "inhibition": "inactive: 4.1%"},
      {"smiles": "CCn1c(=O)c2c(nc3n2CCN3c2ccccc2)n(C)c1=O", "inhibition": "inactive: -25.9%"},
      {"smiles": "CC1CN(C(=O)Cn2cnc3c2c(=O)n(C)c(=O)n3C)CC(C)O1", "note": "(configuration not stated)", "inhibition": "inactive: 35.9%"},
      {"smiles": "C[C@H](NC(=O)N1CCn2c1nc1ccccc12)C(=O)NCc1ccccc1", "inhibition": "inactive: -3.7%"},
      {"smiles": "COc1cccc(CNC(=O)[C@H](CCSC)NC(=O)N2CCn3c2nc2ccccc23)c1", "inhibition": "inactive: -37.9%"},
      {"smiles": "Cc1nc2ccccc2n1CC(=O)N1CC(=O)Nc2ccccc21", "inhibition": "inactive: -1.5%"},
      {"smiles": "COCCN1CCn2c(nc3cc(NC(C)=O)ccc32)C1", "inhibition": "inactive: 19.9%"},
      {"smiles": "COCCNC(=O)Cn1cnc2c1c(=O)n(C)c(=O)n2C", "inhibition": "inactive: -37.9%"},
      {"smiles": "CCOc1ccc(C2=NCC(CBr)S2)cc1", "note": "(configuration not stated)", "inhibition": "inactive: -30.1%"},
      {"smiles": "CC(C)CCNC(=O)CC1C(=O)N(Cc2ccccc2)C(C)c2nc3ccccc3n21", "note": "(configuration not stated)", "inhibition": "inactive: 0.5%"},
      {"smiles": "CC(C)(C)NC(=O)Cn1c(SCC(N)=O)nc2ccccc21", "inhibition": "inactive: -28.8%"},
      {"smiles": "CCc1cccc(CC)c1N(COC)C(=O)Cn1cnc2ccccc21", "inhibition": "inactive: 23.4%"},
      {"smiles": "Cc1ccc2c(c1)C1CN(C)CCC1N2C(=O)COc1ccc(N(C)C(=O)c2ccccc2)cc1", "note": "(configuration not stated)", "inhibition": "inactive: 19.4%"},
      {"smiles": "N=c1n(CCCOc2ccccc2Cl)c2ccccc2n1CC(N)=O", "inhibition": "inactive: 8.3%"},
      {"smiles": "Cc1ccc(C)c(CSc2nc3ccncc3n2CC(=O)Nc2ccc(C)c(C)c2)c1", "inhibition": "inactive: -3.4%"},
      {"smiles": "N#Cc1cccc(NC(=O)Cn2c3[n+](c4ccc(C(F)(F)F)cc42)CCCCC3)c1", "inhibition": "inactive: -4.3%"},
      {"smiles": "CC(C)(C)C(=O)NC(Sc1ccccc1)C(Cl)(Cl)Cl", "note": "(configuration not stated)", "inhibition": "inactive: -0.5%"},
      {"smiles": "O=C(Cn1c(CO)nc2ccccc21)Nc1ccccc1Cl", "inhibition": "inactive: -36.1%"},
      {"smiles": "CCc1nc2ccccc2n1CC(=O)N1CCN(Cc2ccccc2)CC1", "inhibition": "inactive: 22.2%"},
      {"smiles": "C[C@H](NC(=O)N1CCn2c1nc1ccccc12)C(=O)N1CCCCC1", "inhibition": "inactive: -55.8%"},
      {"smiles": "CCc1cccc(CC)c1N(COC)C(=O)Cn1c(CO)nc2ccccc21", "inhibition": "inactive: 13.5%"},
      {"smiles": "CSc1nc2ccccc2n1CC(=O)Nc1ccc(C)c(C)c1", "inhibition": "inactive: 34.8%"},
      {"smiles": "COc1ccc(/C=N/NC(=O)Cn2cnc3c2c(=O)n(C)c(=O)n3C)cc1", "inhibition": "inactive: 18.3%"},
      {"smiles": "COC(=O)C1=C(Cn2cnc3ccccc32)NC(=O)NC1c1cc(C)ccc1C", "note": "(configuration not stated)", "inhibition": "inactive: 5.8%"},
      {"smiles": "c1ccc(CN2CCC(Nc3nc(-c4cccnc4)nc4ccccc34)CC2)cc1", "inhibition": "inactive: -25.1%"},
      {"smiles": "CCOC(=O)c1ccc(NC(=O)Cn2c(-c3nonc3N)nc3ccccc32)cc1", "inhibition": "inactive: -28.8%"},
      {"smiles": "CSc1nc2ccccc2n1CC(=O)Nc1c(C)n(C)n(-c2ccccc2)c1=O", "inhibition": "inactive: 14.6%"},
      {"smiles": "CC(/C=C/c1ccccc1)=N/NC(=O)CCC(=O)Nc1ccccc1C", "inhibition": "inactive: -26.9%"},
      {"smiles": "COc1cccc(C(=O)CSc2nc3ccccc3n2CC(=O)N2CCOCC2)c1", "inhibition": "inactive: -1.2%"},
      {"smiles": "O=C(Cn1c(-c2cncs2)nc2ccccc21)NCCc1ccccc1", "inhibition": "inactive: -27.2%"},
      {"smiles": "Cc1ccc2c(c1)C1CN(C)CCC1N2C(=O)Nc1cccc(Cl)c1", "note": "(configuration not stated)", "inhibition": "inactive: 17.1%"}
    ]}
  ]
}
